These are literature values, as cited in patent publication US20230203096A1, “EPHA4 TARGETING COMPOUNDS AND METHODS OF USE THEREOF” (priority 2020, published 2023).

By UniProt entry, the sequences of proteins in these tests, tags left out. Residues count along the entry.
UniProt P54764, 30-209 limits assumed, species assumed: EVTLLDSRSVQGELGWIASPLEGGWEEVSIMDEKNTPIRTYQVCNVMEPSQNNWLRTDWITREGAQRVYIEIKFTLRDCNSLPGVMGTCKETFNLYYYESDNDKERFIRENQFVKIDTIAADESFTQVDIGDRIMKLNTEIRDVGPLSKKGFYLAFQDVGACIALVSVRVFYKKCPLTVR

Each structure is given as a SMILES string.

The target of this data set is T1, EphA4-LBD (Homo sapiens, UniProt P54764).
T1 construct: first synthetic agonistic ligand with a dissociation constant for EphA4-LBD of ˜ 400 nM
To be noted: reported previously; read-out: dissociation constant for EphA4-LBD; cited from earlier work.

For `COc1ccc2[nH]cc(CCNC(=O)[C@H](Cc3ccncc3)NC(=O)[C@H](Cc3ccc(Cl)cc3)NC(=O)[C@H](Cc3c[nH]c4ccc(O)cc34)NC(=O)CCCN)c2c1` [Compound 123C4, reference compound], the Kd is around 400 nM.
